Format: physicochemical
Details: perfusion medium recirculated 4 hours at 37°C in absence of placenta

Substance: [^3H]-bupropion
- chemical stability / radioactive damage: chemically stable

From article PMC2873069 (The journal of maternal-fetal & neonatal medicine : the …, 2010)
